Target: MafG-His;GST-HBZ (human?;HTLV-1, UniProt O15525;P0C746-2 1-162;1-206, |)
Experiment: EMSA; complex substantially increased over MafG alone; EMSA: 0.5x TM (100 mM Tris-HCl pH 7.5, 20 mM MgSO4 as printed), 1 mM DTT, 1 ug BSA, 100 ng poly(dA)-poly(dT), 2-10 fmol probe, 20 C, 1 h; proteins stored in 50
Conditions: protein: recombinant;recombinant; tags: 6xHis (pRSET A);GST; copies: 1;1; label: 32P end label

B1: T-MARE probe (dsDNA)
DNA 1: AGCTCGGAATTGCTGACTCAGCATTACTCTCG
DNA 2: CGAGAGTAATGCTGAGTCAGCAATTCCGAGCT
**Q.** Does B1 bind?
**A.** binds

— paper PMC6623464, “HTLV-1 basic leucine zipper factor protects cells from oxidative stress by upregulating expression of Heme Oxygenase I”
